The test concerns the target T1, Nucleotide-binding oligomerization domain-containing protein 1 (Homo sapiens, UniProt Q9Y239).
T1 sequence (Q9Y239 whole entry): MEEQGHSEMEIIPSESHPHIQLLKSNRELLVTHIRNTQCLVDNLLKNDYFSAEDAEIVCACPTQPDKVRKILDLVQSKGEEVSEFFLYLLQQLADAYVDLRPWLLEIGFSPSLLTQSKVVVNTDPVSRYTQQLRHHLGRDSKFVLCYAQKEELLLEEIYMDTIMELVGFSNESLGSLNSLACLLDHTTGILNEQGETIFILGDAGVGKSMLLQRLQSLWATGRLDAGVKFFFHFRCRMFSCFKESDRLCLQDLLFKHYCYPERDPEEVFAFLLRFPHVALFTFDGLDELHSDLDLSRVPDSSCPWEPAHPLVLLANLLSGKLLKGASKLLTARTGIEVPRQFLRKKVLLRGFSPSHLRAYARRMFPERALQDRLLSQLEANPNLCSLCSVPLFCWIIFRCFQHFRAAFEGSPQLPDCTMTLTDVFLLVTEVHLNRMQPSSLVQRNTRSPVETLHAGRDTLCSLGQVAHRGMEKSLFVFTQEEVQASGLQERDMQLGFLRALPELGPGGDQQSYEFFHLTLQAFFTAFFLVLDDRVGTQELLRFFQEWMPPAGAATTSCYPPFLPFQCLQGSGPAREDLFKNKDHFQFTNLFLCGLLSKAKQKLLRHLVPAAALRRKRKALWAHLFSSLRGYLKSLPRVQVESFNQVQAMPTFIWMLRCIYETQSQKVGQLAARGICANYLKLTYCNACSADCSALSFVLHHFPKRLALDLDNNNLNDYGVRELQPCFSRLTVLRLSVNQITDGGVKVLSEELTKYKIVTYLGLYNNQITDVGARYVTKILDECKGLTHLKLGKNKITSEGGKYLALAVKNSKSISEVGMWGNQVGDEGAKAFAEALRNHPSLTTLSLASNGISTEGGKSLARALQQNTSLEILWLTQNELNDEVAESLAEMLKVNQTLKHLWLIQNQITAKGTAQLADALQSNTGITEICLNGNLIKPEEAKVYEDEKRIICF
Nature of the test: Inhibition of human NOD1 expressed in HEK-Blue hNOD1 cells coexpressing NF-kappaB-inducible SEAP reporter gene assessed as inhibition of NF-kappaB transcriptional activity by measuring decrease in SEAP activity preincubated for 30 mins followed by C12-iE-DAP addition and measured after 18 hrs by absorbance based spectrophotometric analysis. It counts as cell-based. In general terms: Reporter assays use an easily measured gene product as a stand-in for the process of interest.

The source of these data is ChEMBL document CHEMBL6092202, “4-Anilinoquinazoline Derivatives as the First Potent NOD1-RIPK2 Signaling Pathway Inhibitors at the Nanomolar Range” (J Med Chem, 2024).

What is called IC50 is the concentration that gives 50% inhibition. Take `COc1cc2ncnc(Nc3ccc(F)c(O)c3)c2cc1OC`: the concentration for half-maximal inhibition (IC50) was 81 nM.
Then `Cc1ccc(S(=O)(=O)n2c(N)nc3ccccc32)cc1`, with 1830 nM.
